According to patent US12065409B2, “Analogs of 2-pralidoxime as antidotes against organophosphorus nerve agents” (dated 2024):

Target: human AChE (Homo sapiens, UniProt P22303)
Test: Ellman's assay: reactivation of paraoxon-ethyl-inhibited human AChE
Conditions: read-out: EC50, normalized AChE activity (reactivation); 10 U/mL human AChE, 20 μM paraoxon-ethyl, 0-600 μM reactivator, pH 7.4; mean±SEM

Compound	EC50
C[n+]1ccc(CCCCO)cc1/C=N/O	43 µM
C[n+]1ccc(CCCO)cc1/C=N/O	94 µM
CCOc1cc[n+](C)c(/C=N/O)c1	106 µM
C#CCOc1cc[n+](C)c(/C=N/O)c1	55 µM
CCSc1cc[n+](C)c(/C=N/O)c1	43 µM
C[n+]1ccc(OCC(F)(F)F)cc1/C=N/O	240 µM

Target: Electrophorus electricus (electric eel) AChE (Electrophorus electricus, UniProt O42275)
Test: Ellman's assay: reactivation of paraoxon-inhibited electric eel AChE
Conditions: read-out: EC50, AChE activity (reactivation); 10 U/mL eel AChE, 20 μM paraoxon-ethyl, at 25 minutes, 1:89:10 isopropanol:phosphate:Tris pH 7.4; mean±SEM

Compound	EC50
CCCCOc1cc[n+](C)c(/C=N/O)c1	19 µM
